Measurements taken from PubChem BioAssay AID902 (National Center for Advancing Translational Sciences (NCATS), 2007).
The entries are a selection whose mix differs from that of the whole data set. Results filed as inconclusive are left out. Activity calls are given as the source filed them. Calls follow the shape of the dose curve; as a rule, active = well fitted cell-killing curve with a large enough effect; inconclusive = small, poorly fitted or top-dose-only effect; inactive = no such curve, though single readings can be large or run the other way.

Assay: qHTS Screen for Compounds that Selectively Target Cancer Cells with p53 Mutations: Cytotoxicity of p53ts Cells at the Nonpermissive Temperature; also: nearly all actives have a fitted effect of over 55% in size
Settings: H1299-p53A138V viability at 39C, ATP luminescence, 24 h; at 46.1 µM (top of the series) unless noted
% is scaled to controls: 0 for no effect and ±100 for the full control effect.

Compound | activity change, negative = cell killing
O=C(NCC1(N2CCOCC2)CCCCC1)c1ccc(Cl)cc1 | inactive: 9.86%
COc1ccc(NC2CCN(CCc3ccccc3)CC2)c(OC)c1 | inactive: -9.51%
COc1ccccc1C(=O)NCC1(N2CCOCC2)CCCCC1 | inactive: 15%
O=C(OC1CN2CCC1CC2)C1c2ccccc2Oc2ccccc21 (stereo not drawn) | inactive: -9.02%
O=C(NCC1(N2CCOCC2)CCCCC1)c1ccccc1Br | inactive: -5.04%
CCCCOc1ccccc1C(=O)NCC1(N2CCOCC2)CCCCC1 | inactive: -10.9%
CCOP(=O)(Cl)Cl | inactive: -1.96%
CCCOc1cccc(C(=O)NCC2(N3CCOCC3)CCCCC2)c1 | inactive: -7.27%
CCOc1ccc(C(=O)NCC2(N3CCOCC3)CCCCC2)cc1 | inactive: 3.02%
N#CC1(Nc2ccccc2)CCN(CCc2ccccc2)CC1 | inactive: -6.84%
O=C(NCC1(N2CCOCC2)CCCCC1)c1ccccc1 | inactive: 19.2%
ClCCOP(OCCCl)OCCCl | inactive: 11.8%
O=C(NCC1(N2CCOCC2)CCCCC1)c1ccc([N+](=O)[O-])cc1 | inactive: 6.89%
O=C(NCC1(N2CCOCC2)CCCCC1)c1ccccc1[N+](=O)[O-] | inactive: 6.13%
N/C(=N\O)c1c(N)no[n+]1[O-] | inactive: 5.97%
CCC(CO)(C(=O)OC1CN2CCC1CC2)c1ccccc1 (stereo not drawn) | inactive: 3.76%
COc1cc(C(=O)NCC2(N3CCOCC3)CCCCC2)cc(OC)c1OC | inactive: 3.05%
CCOc1ncccc1C(=O)NCC1(N2CCOCC2)CCCCC1 | inactive: 0.461%
O=C(O)C1(Nc2ccccc2)CCN(Cc2ccccc2)CC1 | inactive: 0.382% [at 9.22 µM]
CC(C)(C)c1ccc(C(=O)NCC2(N3CCOCC3)CCCCC2)cc1 | inactive: 7.71%
Cc1ccccc1C(=O)NCC1(N(C)C)CCCCC1 | inactive: -14.4%
CN(C)C1(CNC(=O)c2ccc(C(C)(C)C)cc2)CCCCC1 | inactive: -8.67%
Fc1ccccc1NC1CCN(Cc2ccccc2)CC1 | inactive: -3.33%
